ChEMBL document CHEMBL1124862 (J Med Chem, 1990)

Sequences of proteins named here, by UniProt entry; tags and fusion partners are left off.
UniProt P19327, whole entry: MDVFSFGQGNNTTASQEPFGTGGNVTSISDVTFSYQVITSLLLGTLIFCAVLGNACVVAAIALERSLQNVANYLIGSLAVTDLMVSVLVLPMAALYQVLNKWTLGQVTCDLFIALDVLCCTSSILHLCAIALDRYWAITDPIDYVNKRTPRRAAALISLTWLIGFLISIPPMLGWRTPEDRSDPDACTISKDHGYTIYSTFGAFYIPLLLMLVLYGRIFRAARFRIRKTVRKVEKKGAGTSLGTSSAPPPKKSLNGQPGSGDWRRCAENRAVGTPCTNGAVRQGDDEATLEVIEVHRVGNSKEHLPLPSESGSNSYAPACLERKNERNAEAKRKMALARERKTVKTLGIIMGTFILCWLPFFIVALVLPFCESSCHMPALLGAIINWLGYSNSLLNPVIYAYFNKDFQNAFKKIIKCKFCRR

Target: 5-hydroxytryptamine receptor 1A (Rattus norvegicus, UniProt P19327)
Assay: Displacement of [3H]8-OH-DPAT from rat cortex 5-hydroxytryptamine 1A receptor
Summary of the method: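 Competition binding in rat cortex membranes, using the radioligand named in each line at a concentration of approximately its K_D.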

NCCc1c[nH]c2ccc(O)cc12 [SEROTONIN]
IC50: 5.2 nM
